Measured affinities in a library of Ab-14 light chain variants

The measurements come from Li et al. 2023 (doi:10.1038/s41467-023-39022-2) through the FLAb antibody collection.

Target: peptide PDVDLGDISGINAS, taken from heptad repeat 2 (HR2) of SARS-CoV-2 spike.

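The starting antibody came from a phage panning campaign against this peptide. These sequences belong to a second round, designed from the earlier measurements on random variants of the parent. Group labels follow the data file (Rand: our label for a block that the file lists under HC and that is probably the random mutants of the ten best first-round binders; En: ensemble of fine-tuned language models; GP: Gaussian process model; HC: hill climbing; Gen: genetic algorithm; Gibbs: Gibbs sampling; a sequence that several methods proposed may carry one label only). AlphaSeq pools MATa yeast showing the antibodies with MATalpha yeast showing the peptide. Binding brings cells together so that they mate, and sequencing counts the barcode pairs among the diploids. Each replicate has its own calibration line, from reference interactions of the BCL2 family. There are six technical replicates.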

Each scFv is VH, a 15-residue (Gly4Ser)3 linker, VL, as in the parent Ab-14, and differs from it in the CDRs of the light chain only.
VH: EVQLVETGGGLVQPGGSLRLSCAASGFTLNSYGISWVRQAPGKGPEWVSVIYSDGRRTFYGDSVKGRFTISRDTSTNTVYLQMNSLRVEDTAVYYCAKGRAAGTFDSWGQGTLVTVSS
VL: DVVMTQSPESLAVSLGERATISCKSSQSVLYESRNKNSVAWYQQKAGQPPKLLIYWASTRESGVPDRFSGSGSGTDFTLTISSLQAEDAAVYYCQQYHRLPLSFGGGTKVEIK

Variants are written as CDR1, CDR2 and CDR3 of the light chain (limits as in the source). Parent: KSSQSVLYESRNKNSVA, WASTRES, QQYHRLPLS.
This list holds designs with more than six substitutions.
Kd is apparent (estimated from mating counts) and averaged on the log scale over replicates with a signal. Smaller is tighter.
Where no diploid with the target was found in any replicate, the entry reads "nd": below detection, most likely a poor binder, though not proof of it.
Order: sorted from the lowest average up, undetected variants last.
Nonspecific signal, from three strains lacking the peptide, appeared in 4% of pairings of all light chain designs, centred on 430 nM (5% of these signals below 38 nM); values are not corrected for it. The control count says in how many pairings with the empty strains this scFv gave a signal.

| CDR-L1 | CDR-L2 | CDR-L3 | group | Kd | seen in | empty controls |
|---|---|---|---|---|---|---|
| KLSQSYCYGDRNKNSVA | QASTREQ | QQYHRLPLS | GP_Gibbs | 590 pM | 6 of 6 | 1 of 18 |
| KLVQSELYESRNKNNVA | GASQRES | QAYHRLPLS | GP_Gibbs | 650 pM | 6 of 6 | 1 of 18 |
| TISMITSSFTQNINNVA | EVSTRLN | QQYDRLPLA | En_Gen | 800 pM | 6 of 6 | 0 of 18 |
| SLMQSQLYESRNKNSVA | HASLRED | QQYHRLPLS | GP_HC | 830 pM | 6 of 6 | 1 of 18 |
| KITATMRFEQKNSNNIA | EVSMRTK | QQYYRLPLS | En_Gen | 950 pM | 6 of 6 | 0 of 18 |
| VLPDHELMKESQQHSIA | NEDKRME | QQYSRLPLM | En_Gibbs | 1.1 nM | 6 of 6 | 1 of 18 |
| KLSMVTGHMSKAKNNVA | EMETREN | QQYDRLPLS | En_Gen | 1.2 nM | 6 of 6 | 0 of 18 |
| KVDQSWQYGSRNKNSVA | NASQRES | QQYHRLPLS | GP_Gibbs | 1.5 nM | 6 of 6 | 3 of 18 |
| KLQQSVQYESRVKNAVA | QASQRES | QQYHRLPLS | GP_Gibbs | 1.6 nM | 6 of 6 | 0 of 18 |
| KVDQEVGGLSRNQNAVA | AASTRES | QQYHRLPLS | GP_Gibbs | 1.6 nM | 6 of 6 | 1 of 18 |
| KSSCSVDYEDRNSNSVA | NASQRLW | QQYHRLPLS | GP_Gibbs | 1.6 nM | 6 of 6 | 2 of 18 |
| KLQQSVLMGSRNKNSVA | EASTREV | QAYHRLPLS | GP_Gibbs | 1.6 nM | 6 of 6 | 0 of 18 |
| KLLQSVNIGSRALNSVA | QMETRVD | QQYHRLPLS | En_HC | 1.7 nM | 6 of 6 | 2 of 18 |
| ILSQSMLYESRNKNSVA | NASQRWS | QDYHRLPLS | GP_Gibbs | 1.8 nM | 6 of 6 | 2 of 18 |
| KLMQEMLYESRLANSVA | NASQREE | QQYHRLPLS | GP_Gibbs | 1.9 nM | 6 of 6 | 1 of 18 |
| TLSHSTDLEMVHKNSIA | DLMTRES | QQYDRLPLS | En_HC | 2.1 nM | 6 of 6 | 0 of 18 |
| QINLQGLSAALNNRNVA | AKNLRVD | QQYNRLPLS | En_Gibbs | 2.1 nM | 6 of 6 | 2 of 18 |
| KIIQEGNYESRNKNSVA | SASTRCP | QQYHRLPLS | GP_Gibbs | 2.2 nM | 6 of 6 | 3 of 18 |
| RITHSQLDYRNPEANIA | HESMRAV | QQYSQLPLT | En_Gibbs | 2.2 nM | 6 of 6 | 1 of 18 |
| IISQVDDYLSRNTNSIA | DQTTRGS | QQYDRLPLS | En_HC | 2.2 nM | 6 of 6 | 1 of 18 |
| TIGAMLRYGSRNKNNVA | EVSERLN | QQYDRLPLL | En_Gen | 2.2 nM | 6 of 6 | 0 of 18 |
| KMSQSVLLESRNWNAVA | MASTRMD | QQYHRLPLS | GP_Gibbs | 2.3 nM | 6 of 6 | 1 of 18 |
| HIQQVKAEQKNAENNIA | SGAQRVW | QQYSRLPFI | En_Gibbs | 2.3 nM | 6 of 6 | 1 of 18 |
| HMKDMPGFGPQTYSSIA | HAEIREP | QQYYRLPLM | En_Gibbs | 2.5 nM | 6 of 6 | 1 of 18 |
| KLQWSVLYQSRNKNSVA | QASTRMM | QQYHRLPLS | GP_Gibbs | 2.6 nM | 6 of 6 | 0 of 18 |
| LIKGMVEGQLYKQNAIA | NAEERDR | QQYNHLPLS | En_Gibbs | 2.7 nM | 6 of 6 | 1 of 18 |
| KISGMYQKESKNKNSVA | EMVNREE | QQYDRLPLS | En_HC | 2.8 nM | 6 of 6 | 1 of 18 |
| KISQMVRVGSTAANSIA | EEVTRAK | QQYHRLPLA | En_Gen | 2.9 nM | 6 of 6 | 0 of 18 |
| ILSQSVLMGSHLKNSVA | QASTRFD | QQYHRLPLM | En_HC | 2.9 nM | 6 of 6 | 0 of 18 |
| MVNGIMDHLSKNVNNVA | ETETRNS | QQYDRLPLS | En_Gen | 3.0 nM | 6 of 6 | 1 of 18 |
| RMEWHNSGATEAKNSVA | GVEHRAN | QQYDRLPLE | En_Gibbs | 3.2 nM | 6 of 6 | 3 of 18 |
| TLGNQPTEMRDNKHAVA | DDNQRDR | QQYMRLPLS | En_Gibbs | 3.5 nM | 6 of 6 | 0 of 18 |
| IISSVDAYESRNKNSIA | DQSTRGS | QQYDRLPLS | En_HC | 3.6 nM | 6 of 6 | 3 of 18 |
| MISQLYNMGSFAINSVA | QASMRNN | QQYDRLPLM | En_Gen | 3.7 nM | 6 of 6 | 1 of 18 |
| MISQSFYIGMKAKNSVA | QTNTREE | QQYDRLPLI | En_HC | 4.1 nM | 6 of 6 | 0 of 18 |
| VLSHSTDLESVHKNSIA | DLMTRES | QQYHRLPLS | En_HC | 4.2 nM | 6 of 6 | 1 of 18 |
| NVNVSEDQWPLSKNAIA | QTTCRVL | QQYAHLPLS | En_Gibbs | 4.6 nM | 6 of 6 | 1 of 18 |
| KVMQSHWQESRNKNSVA | HASLREV | QQYHRLPLS | GP_Gibbs | 4.6 nM | 6 of 6 | 1 of 18 |
| KLDYQADQYGVQWNNVA | HADIREP | QQYFKLPLN | En_Gibbs | 4.8 nM | 6 of 6 | 2 of 18 |
| KSDQSELEESRNDNSVA | SANTRMS | QQYHRLPLS | GP_Gibbs | 4.9 nM | 6 of 6 | 2 of 18 |
| NFSQMVLTGSTLKNSVA | HAMTREE | QQYHRLPLI | En_HC | 5.2 nM | 6 of 6 | 1 of 18 |
| MISNVMNTLTRYGNNVA | DLAERED | QQYFRLPLS | En_Gen | 5.3 nM | 6 of 6 | 0 of 18 |
| KISQLVNFEGKNTNSVA | QMSTRES | QQYDRLPLS | En_HC | 5.5 nM | 6 of 6 | 2 of 18 |
| KLQQSVLYGSRNKNSVA | QASTRMV | QAYHRLPLS | GP_Gibbs | 6.5 nM | 5 of 6 | 0 of 18 |
| TISQMTSLFSQTINNVA | EVSTREP | QQYDRLPLT | En_Gen | 6.9 nM | 6 of 6 | 1 of 18 |
| KISQMFYYESINTNSVA | QKSTREE | QDYHRLPLS | En_HC | 8.4 nM | 6 of 6 | 1 of 18 |
| TLYGLSVSMSKNKNSVA | EMTTREK | QQYDRLPLF | En_Gen | 8.6 nM | 5 of 6 | 0 of 18 |
| TISQITSLFSQTTNNVA | EVSTREK | QQYDRLPLS | En_Gen | 8.9 nM | 6 of 6 | 2 of 18 |
| MISQLFMYGMRNYNSVA | QASTRES | QQYDRLPLI | En_HC | 12 nM | 6 of 6 | 0 of 18 |
| SLAYTQHFGQTGGKAIA | EVAMRCQ | QQYFRLPLG | En_Gibbs | 14 nM | 5 of 6 | 0 of 18 |
| KLRQLMHIESFNKNNVA | EMTMREK | QSYDRLPLS | En_HC | 14 nM | 6 of 6 | 2 of 18 |
| TLHANIEYGGIMWSSIA | GNVQRAN | QQYARLPLS | En_Gibbs | 14 nM | 6 of 6 | 1 of 18 |
| MFSQLTYTGSRARNAVA | QAETREN | QQYHHLPLS | En_HC | 15 nM | 6 of 6 | 0 of 18 |
| HMSAITLGGMRAKNSVA | QMTTREN | QQYDRLPLS | En_Gen | 15 nM | 6 of 6 | 2 of 18 |
| KLGSMTAIESRNLNSVA | QMDTRES | QQYHRLPLS | En_HC | 15 nM | 6 of 6 | 1 of 18 |
| KISINQSNYNGMRSAIA | NTNQARM | QQYFHLPLM | En_Gibbs | 16 nM | 6 of 6 | 0 of 18 |
| KISDMMQTDMGRVSAVA | DDDVAND | QQYARLPLA | En_Gibbs | 16 nM | 6 of 6 | 1 of 18 |
| KLDHYKLGENGMRGSIA | NMTIRDY | QQYFHLPLF | En_Gibbs | 16 nM | 6 of 6 | 0 of 18 |
| NLYMDAAEFVMMGESIA | DATISYQ | QQYHRLPLT | En_Gibbs | 20 nM | 6 of 6 | 0 of 18 |
| ILEENSDDITEKQNSIA | ETQMVYS | QQYHRLPLA | En_Gibbs | 22 nM | 6 of 6 | 0 of 18 |
| HITDVMYNNNEGMQSIA | DKAISVN | QQYFRLPLD | En_Gibbs | 24 nM | 6 of 6 | 0 of 18 |
| HMHTIMYTENIGENSIA | DANLHVD | QQYFRLPIS | En_Gibbs | 28 nM | 6 of 6 | 0 of 18 |
| HVSQLLTDEMYREYNVA | ETSHVEE | QDYERLPLI | En_Gibbs | 38 nM | 1 of 6 | 0 of 18 |
| SMTIDTEMEAKHQNSVA | EASHTEY | QQYSELPLT | En_Gibbs | 41 nM | 6 of 6 | 1 of 18 |
| KLSQMVLFWGHAINSVA | EMETREN | QQYDRLPLS | En_HC | 42 nM | 5 of 6 | 0 of 18 |
| HLGLVTELEAKVSNSVA | NNSTREE | QQYDRLPLS | En_Gen | 45 nM | 6 of 6 | 2 of 18 |
| NLGQKMALETEQRNSIA | DSTVRED | QQYSRIPLI | En_Gibbs | 130 nM | 6 of 6 | 0 of 18 |
| KVSEFMKGLMARTDSIA | DNVTRNN | QQYDRLPLS | En_Gen | 130 nM | 6 of 6 | 0 of 18 |
| KVDQEWHYGSRNKNSVA | NASQRER | QQYHRLPLS | GP_Gibbs | 150 nM | 6 of 6 | 0 of 18 |
| KLLQVTETMSLNRNSVA | HMSTRED | QQYNRLPLS | En_HC | 190 nM | 5 of 6 | 3 of 18 |
| MLSDLVKSGSRNTNSVA | DNSTRGS | QQYDRLPLS | En_HC | 220 nM | 5 of 6 | 0 of 18 |
| HISQSVGMTSFNKNSVA | ENTTREN | QQYDRLPLS | En_HC | 390 nM | 4 of 6 | 0 of 18 |
| MFEGYNSEGEANNNNVA | DHNCGER | QQYYRLPLT | En_Gibbs | 520 nM | 2 of 6 | 0 of 18 |
| MVNGIMDHLSKNVNSVA | ETETRNS | QQYDRLPLS | En_Gen | 690 nM | 6 of 6 | 2 of 18 |
| MISQLMNMGYFAINSVA | QASERSN | QQYDRLPLI | En_Gen | nd | 0 of 6 | 0 of 18 |
| RMSVFMLTDENVWYSIA | NSAAVRT | QQYQRLPLS | En_Gibbs | nd | 0 of 6 | 0 of 18 |
| KLGQGVLYESMNCNSYA | GASTRES | QQYHRLPSS | Rand | nd | 0 of 6 | 1 of 18 |
| KLSQLFYKESMNKNNVA | EMTTRGS | QQYDRLPLS | En_HC | nd | 0 of 6 | 0 of 18 |

A selection of 7 entries from above:

| CDR-L1 | CDR-L2 | CDR-L3 | group | Kd | seen in | empty controls |
|---|---|---|---|---|---|---|
| KLSQLFYKESMNKNNVA | EMTTRGS | QQYDRLPLS | En_HC | nd | 0 of 6 | 0 of 18 |
| QINLQGLSAALNNRNVA | AKNLRVD | QQYNRLPLS | En_Gibbs | 2.1 nM | 6 of 6 | 2 of 18 |
| MISQLMNMGYFAINSVA | QASERSN | QQYDRLPLI | En_Gen | nd | 0 of 6 | 0 of 18 |
| IISSVDAYESRNKNSIA | DQSTRGS | QQYDRLPLS | En_HC | 3.6 nM | 6 of 6 | 3 of 18 |
| SLMQSQLYESRNKNSVA | HASLRED | QQYHRLPLS | GP_HC | 830 pM | 6 of 6 | 1 of 18 |
| KMSQSVLLESRNWNAVA | MASTRMD | QQYHRLPLS | GP_Gibbs | 2.3 nM | 6 of 6 | 1 of 18 |
| NFSQMVLTGSTLKNSVA | HAMTREE | QQYHRLPLI | En_HC | 5.2 nM | 6 of 6 | 1 of 18 |

In the paper, a design with two or fewer of six values counts as a poor binder.
The parent sequence was in this pool as ten entries: three were never detected, three once, and four in most replicates, with averages from 2.2 nM to 240 nM.
A sequence measured in both rounds can read differently, since the two assays cover different ranges.